System: rats
Assay: Acute Oral Toxicity--Rat
Settings: in vivo

## CO[C@H]1CO[C@H]2[C@@H]1OC[C@H]2OC [Dimethyl isosorbide, dimethyl isosorbide]
  acute oral (LD50) toxicity: about 5.63 ml per kg of body weight
  survival: All of the 20 rats given the four low dosages survived

— patent publication US4228162A, “Dimethyl isosorbide in liquid formulation of aspirin” (priority 1979, dated 1980)
